Experimental findings from PubChem BioAssay AID2805 (Sanford-Burnham Center for Chemical Genomics, 2010) are described below.

This is a selection; strong and weak results do not stand in their true shares. Activity calls are given as the source filed them.

The subject of this test is intestinal alkaline phosphatase [Mus musculus]. Kind of test: activators of mouse IAP, primary screen, biochemical, luminescence, uHTS (AID 2805). The note with it: muIAP, CDP-Star luminescence, 30 min; at 10 µM; active compounds read high; 1 = vehicle-only enzyme signal, 0 = enzyme-free wells. The essentials: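 also added = chemiluminescent substrate CDP-Star | test system = mouse IAP enzyme | signal = chemiluminescence readout | compound = DMSO-dissolved test compounds | incubation = 30 min at room temperature | benchmarks = DMSO wells, no-enzyme wells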
Turning to `CCC(=O)N(c1ccccc1)C1(COC)CCN(CCc2cccs2)CC1`, the activation factor was inactive: 1.2. With `CCC(=O)N(c1ccccc1)C1(COC)CCN(CCn2nnn(CC)c2=O)CC1`, the activation factor was inactive: 1.1.
